The text below walks through data of publication PMC11456535, “Receptor activity-modifying protein modulation of parathyroid hormone-1 receptor function and signaling” (Frontiers in Pharmacology, 2024).

Protein sequences, listed by entry. Tags and fused reporters are not part of them. Residues count along the entry.
UniProt Q03431, 27-593: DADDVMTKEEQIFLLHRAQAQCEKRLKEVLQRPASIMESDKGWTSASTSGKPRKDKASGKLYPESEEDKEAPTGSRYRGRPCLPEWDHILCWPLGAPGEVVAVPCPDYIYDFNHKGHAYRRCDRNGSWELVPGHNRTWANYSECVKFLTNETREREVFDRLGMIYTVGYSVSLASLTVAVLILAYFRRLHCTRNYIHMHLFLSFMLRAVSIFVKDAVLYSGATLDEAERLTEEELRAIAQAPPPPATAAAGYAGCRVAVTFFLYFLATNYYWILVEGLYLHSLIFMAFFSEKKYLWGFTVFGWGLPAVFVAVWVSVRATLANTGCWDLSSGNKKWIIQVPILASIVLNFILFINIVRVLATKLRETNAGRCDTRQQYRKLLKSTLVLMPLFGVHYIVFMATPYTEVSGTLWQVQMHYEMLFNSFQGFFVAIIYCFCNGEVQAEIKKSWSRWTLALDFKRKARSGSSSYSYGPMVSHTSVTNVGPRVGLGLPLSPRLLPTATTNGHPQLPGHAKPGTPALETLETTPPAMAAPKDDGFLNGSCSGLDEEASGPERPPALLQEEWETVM

Assay [1] has as its target PTH1R of the PathHunter CHO-K1 PTH1R β-arrestin cell line (UniProt Q03431).
The target is the same in assay [2]. The source holds these as a separate data set.

On to PTHrP (1-34) (peptide), for which, in assay [1], the efficacy, cAMP accumulation, CHO-K1 PTH1R + RAMP2 cells, Table 7 was 94%; the efficacy, cAMP accumulation, CHO-K1 PTH1R + RAMP3 cells, Table 7 amounted to 86.7%; the efficacy, cAMP accumulation, CHO-K1 PTH1R parental cells (mock), Table 7 was determined as 91.1%; the pEC50, cAMP accumulation, CHO-K1 PTH1R + RAMP3 cells, Table 7 was determined as 8.98 pEC50. Besides, in assay [1], the pEC50, cAMP accumulation, CHO-K1 PTH1R parental cells (mock), Table 7 came to 9.53 pEC50. Besides, in assay [2], the efficacy, cAMP accumulation (Gαs), CHO-K1 PTH1R + RAMP2 cells was determined as 93.9%; the efficacy, cAMP accumulation (Gαs), CHO-K1 PTH1R + RAMP3 cells was 85.3%; the efficacy, cAMP accumulation (Gαs), CHO-K1 PTH1R parental cells (mock) stood at 90.1%; the efficacy, cAMP accumulation after pertussis toxin (cAMP + PTX), CHO-K1 PTH1R + RAMP2 cells came to 94.5%. Also, in assay [2], the efficacy, cAMP accumulation after pertussis toxin (cAMP + PTX), CHO-K1 PTH1R + RAMP3 cells was found to be 70.5%; the efficacy, cAMP accumulation after pertussis toxin (cAMP + PTX), CHO-K1 PTH1R parental cells (mock) was 78%; the efficacy, calcium influx (Gαq), CHO-K1 PTH1R + RAMP2 cells came out at 83.4%; the efficacy, β-arrestin recruitment, CHO-K1 PTH1R + RAMP2 cells stood at 105%. In assay [2], the efficacy, β-arrestin recruitment, CHO-K1 PTH1R parental cells (mock) is 6.75%; the pEC50, cAMP accumulation (Gαs), CHO-K1 PTH1R + RAMP2 cells was found to be 10.8 pEC50; the pEC50, cAMP accumulation (Gαs), CHO-K1 PTH1R + RAMP3 cells is 9 pEC50; the pEC50, cAMP accumulation (Gαs), CHO-K1 PTH1R parental cells (mock) was 9.55 pEC50. Moreover, in assay [2], the pEC50, cAMP accumulation after pertussis toxin (cAMP + PTX), CHO-K1 PTH1R + RAMP2 cells turned out to be 10.7 pEC50; the pEC50, cAMP accumulation after pertussis toxin (cAMP + PTX), CHO-K1 PTH1R + RAMP3 cells turned out to be 8.85 pEC50; the pEC50, cAMP accumulation after pertussis toxin (cAMP + PTX), CHO-K1 PTH1R parental cells (mock) turned out to be 9.57 pEC50; the pEC50, calcium influx (Gαq), CHO-K1 PTH1R + RAMP2 cells was determined as 6.65 pEC50. Moreover, in assay [2], the pEC50, β-arrestin recruitment, CHO-K1 PTH1R + RAMP2 cells stood at 8.17 pEC50 and the pEC50, β-arrestin recruitment, CHO-K1 PTH1R parental cells (mock) is 8.5 pEC50.
